Test results from patent US20230270872A1, “CONJUGATE OF SAPONIN AND SINGLE-DOMAIN ANTIBODY, PHARMACEUTICAL COMPOSITION COMPRISING SAID CONJUGATE, THERAPEUTIC USE THEREOF” (SAPREME TECHNOLOGIES B.V., priority 2020, published 2023).

Test system: human A431 tumor cells xenograft
Test: A431 xenograft tumor model, tumor volume and survival (Example 10)
Assay type: in vivo, mouse
Conditions: Balb/c nude mice
Procedure: Female Balb/c nude mice were injected subcutaneously with a suspension of human A431 tumor cells. Under the skin of the mice, a human epidermal carcinoma developed in the xenograft animal tumor model. After injection of the tumor cells, the xenograft tumor was allowed to develop to a size of approximately 170-180 mm^3. The A431 tumor cells have the following characteristics: high EGFR expressors, medium CD71 expressors, low HER2 expressors.
In Table 6A, the results of the treatment of control mice and tumor-bearing mice are presented. Tumor-bearing mice were treated with the indicated antibodies directed to either human Her2/neu, human EGFR, or human CD71, which are cell-surface receptors on the xenograft tumor. Cetuximab was covalently conjugated with saponin SO1861. […] The dose of the ADCs was sub-optimal in the tumor model. That is to say, from previous experiments, it was established at which sub-optimal dose of the ADCs no tumor-regression or arrest of tumor growth would be observable.

| Substance | outcome (death/euthanasia or survival) | tumor size (volume) (sub-optimal ADC dose, tumor 170-180 mm^3 at start) [mm^3] |
| --- | --- | --- |
| Cetuximab-SO1861: SO1861-EMCH conjugated via cysteine residues to cetuximab | death/euthanasia | 2000 |
| Cetuximab: monoclonal antibody recognizing and binding human EGFR | (death/euthanasia) | – |
